Measured affinities in a library of Ab-91 heavy chain variants

The measurements come from Engelhart et al. 2022 (doi:10.1038/s41597-022-01779-4) through the FLAb antibody collection.

Binding partner: SARS-CoV-2 spike HR2 peptide, sequence PDVDLGDISGINAS.

The variants keep the light chain, the linker and the frameworks of Ab-91 (scFv order VL, three GGGGS repeats, VH).
VL: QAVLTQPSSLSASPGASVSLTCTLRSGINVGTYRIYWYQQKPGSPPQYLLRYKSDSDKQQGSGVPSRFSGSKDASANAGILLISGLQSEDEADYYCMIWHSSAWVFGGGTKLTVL
VH: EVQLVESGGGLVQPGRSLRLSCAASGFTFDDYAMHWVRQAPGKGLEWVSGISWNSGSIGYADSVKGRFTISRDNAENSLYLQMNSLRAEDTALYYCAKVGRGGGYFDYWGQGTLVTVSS

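The starting antibody came from a phage panning campaign against this peptide. Variants in AAYL51 differ from the parent at up to three CDR positions; double and triple changes were sampled at random. AlphaSeq pools MATa yeast showing the antibodies with MATalpha yeast showing the peptide. Pairs that bind mate more often; barcode pairs of the diploids are counted by sequencing. A regression on co-assayed BCL2-family reference pairs converts the normalised counts of each replicate to an apparent Kd. There are three technical replicates.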

Substitutions are numbered in sequence along the VH above, starting at 1 (not Kabat).
Values are log10 of the apparent Kd in nM; lower means stronger binding.
A mean of the replicates is given; it leaves out those without a signal.
Where no diploid with the target was found in any replicate, the entry reads "no signal": below detection, most likely a poor binder, though not proof of it.
Entries are sorted by rising average, undetected variants last.
Nonspecific signal, from three strains lacking the peptide, appeared in 21% of pairings of library AAYL51, centred on 4.54 (5% of these signals below 3.26); values are not corrected for it.

{"changes": "W53G+A61F+V99I", "mean log10 Kd (nM)": "0.44", "seen in": "3 of 3"}
{"changes": "S57N+A61R", "mean log10 Kd (nM)": "2.15", "seen in": "3 of 3"}
{"changes": "G56Y+I58K+D107T", "mean log10 Kd (nM)": "2.62", "seen in": "3 of 3"}
{"changes": "T28L+W53C+D107V", "mean log10 Kd (nM)": "3.19", "seen in": "3 of 3"}
{"changes": "F29I+S52Y+I58S", "mean log10 Kd (nM)": "4.04", "seen in": "1 of 3"}
{"changes": "H35W+I58V+S63H", "mean log10 Kd (nM)": "4.32", "seen in": "2 of 3"}
{"changes": "H35S+R101A+G104D", "mean log10 Kd (nM)": "4.34", "seen in": "2 of 3"}
{"changes": "W53F+G100F+Y105C", "mean log10 Kd (nM)": "4.56", "seen in": "2 of 3"}
{"changes": "F29C+K65P+V99A", "mean log10 Kd (nM)": "4.63", "seen in": "1 of 3"}
{"changes": "H35C+V64I+Y108F", "mean log10 Kd (nM)": "4.70", "seen in": "2 of 3"}
{"changes": "Y105V+D107A", "mean log10 Kd (nM)": "4.98", "seen in": "3 of 3"}
{"changes": "Y32F+G59F+Y108I", "mean log10 Kd (nM)": "5.71", "seen in": "2 of 3"}
{"changes": "S52C+G104E+Y105E", "mean log10 Kd (nM)": "no signal", "seen in": "0 of 3"}
{"changes": "F27Y+H35Q+N54M", "mean log10 Kd (nM)": "no signal", "seen in": "0 of 3"}
{"changes": "A33H+I51G", "mean log10 Kd (nM)": "no signal", "seen in": "0 of 3"}
{"changes": "G103M+Y105P+D107G", "mean log10 Kd (nM)": "no signal", "seen in": "0 of 3"}
{"changes": "G26E+D30K+A61Y", "mean log10 Kd (nM)": "no signal", "seen in": "0 of 3"}
{"changes": "G26H+M34I+G103C", "mean log10 Kd (nM)": "no signal", "seen in": "0 of 3"}
{"changes": "F27V+D62C+Y108R", "mean log10 Kd (nM)": "no signal", "seen in": "0 of 3"}
{"changes": "D31W+S55R+G56E", "mean log10 Kd (nM)": "no signal", "seen in": "0 of 3"}
{"changes": "H35S+N54T+V64I", "mean log10 Kd (nM)": "no signal", "seen in": "0 of 3"}
{"changes": "F27D+S57G+K65E", "mean log10 Kd (nM)": "no signal", "seen in": "0 of 3"}
{"changes": "G26F+Y32L+D107W", "mean log10 Kd (nM)": "no signal", "seen in": "0 of 3"}
{"changes": "F27W+T28D+D62K", "mean log10 Kd (nM)": "no signal", "seen in": "0 of 3"}

3 of these entries, quoted again:

{"changes": "H35S+N54T+V64I", "mean log10 Kd (nM)": "no signal", "seen in": "0 of 3"}
{"changes": "W53F+G100F+Y105C", "mean log10 Kd (nM)": "4.56", "seen in": "2 of 3"}
{"changes": "H35S+R101A+G104D", "mean log10 Kd (nM)": "4.34", "seen in": "2 of 3"}